In the assay the target is HDAC6-FLAG (Homo sapiens, UniProt Q9UBN7). The assay is described as follows: Histone deacetylase assay, immunoprecipitated HDAC6-FLAG on [3H]acetylated histone H4 peptide. Conditions: 400 nM TSA.

The chains behind the UniProt entries cited, without tags or fusion partners. Where a name states a change or a piece, a line headed by the entry shows the natural chain unless it says otherwise.
UniProt Q9UBN7: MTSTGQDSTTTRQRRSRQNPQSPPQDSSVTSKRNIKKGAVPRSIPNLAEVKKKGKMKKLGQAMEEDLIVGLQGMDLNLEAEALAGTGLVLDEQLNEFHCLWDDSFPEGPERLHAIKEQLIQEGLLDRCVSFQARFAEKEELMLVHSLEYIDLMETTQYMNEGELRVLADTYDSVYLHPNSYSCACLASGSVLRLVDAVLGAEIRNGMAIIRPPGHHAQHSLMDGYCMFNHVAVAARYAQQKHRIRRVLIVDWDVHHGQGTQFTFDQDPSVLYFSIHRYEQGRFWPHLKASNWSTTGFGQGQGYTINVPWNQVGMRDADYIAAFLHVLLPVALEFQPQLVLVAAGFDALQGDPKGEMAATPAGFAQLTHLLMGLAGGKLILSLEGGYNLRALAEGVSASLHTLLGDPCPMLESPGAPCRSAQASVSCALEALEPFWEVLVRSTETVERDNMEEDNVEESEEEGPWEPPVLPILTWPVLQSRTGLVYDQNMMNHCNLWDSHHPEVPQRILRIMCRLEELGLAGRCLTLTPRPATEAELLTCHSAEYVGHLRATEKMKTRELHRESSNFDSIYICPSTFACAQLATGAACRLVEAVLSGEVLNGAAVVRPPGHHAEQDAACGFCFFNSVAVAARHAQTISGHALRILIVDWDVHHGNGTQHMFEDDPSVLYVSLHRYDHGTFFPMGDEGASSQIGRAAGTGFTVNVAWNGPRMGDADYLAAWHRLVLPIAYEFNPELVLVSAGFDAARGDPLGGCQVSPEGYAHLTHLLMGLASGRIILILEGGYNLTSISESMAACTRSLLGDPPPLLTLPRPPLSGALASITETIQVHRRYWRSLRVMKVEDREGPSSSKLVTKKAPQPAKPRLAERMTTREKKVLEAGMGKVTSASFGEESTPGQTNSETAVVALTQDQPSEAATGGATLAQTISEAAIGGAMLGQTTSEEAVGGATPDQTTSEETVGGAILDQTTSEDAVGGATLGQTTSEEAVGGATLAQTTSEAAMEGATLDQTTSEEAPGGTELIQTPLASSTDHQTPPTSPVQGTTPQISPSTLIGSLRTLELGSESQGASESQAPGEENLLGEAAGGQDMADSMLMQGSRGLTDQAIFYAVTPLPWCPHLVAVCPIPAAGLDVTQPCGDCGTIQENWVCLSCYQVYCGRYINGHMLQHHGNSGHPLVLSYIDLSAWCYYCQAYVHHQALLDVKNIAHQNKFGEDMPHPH

With Trichostatin A, the “HDAC activity of HDAC6-FLAG” value is recorded as “potently inhibited”.

The values above are taken from patent US7884081B2, “Methods of modulating tubulin deacetylast activity” (The J. David Gladstone Institutes, priority 2002, dated 2011).
